Experimental findings from article PMC7300657 (EMBO Molecular Medicine, 2020) are described below.

Protein sequences, listed by entry. Tags and fused reporters are not part of them.
UniProt Q9NSY1, whole entry: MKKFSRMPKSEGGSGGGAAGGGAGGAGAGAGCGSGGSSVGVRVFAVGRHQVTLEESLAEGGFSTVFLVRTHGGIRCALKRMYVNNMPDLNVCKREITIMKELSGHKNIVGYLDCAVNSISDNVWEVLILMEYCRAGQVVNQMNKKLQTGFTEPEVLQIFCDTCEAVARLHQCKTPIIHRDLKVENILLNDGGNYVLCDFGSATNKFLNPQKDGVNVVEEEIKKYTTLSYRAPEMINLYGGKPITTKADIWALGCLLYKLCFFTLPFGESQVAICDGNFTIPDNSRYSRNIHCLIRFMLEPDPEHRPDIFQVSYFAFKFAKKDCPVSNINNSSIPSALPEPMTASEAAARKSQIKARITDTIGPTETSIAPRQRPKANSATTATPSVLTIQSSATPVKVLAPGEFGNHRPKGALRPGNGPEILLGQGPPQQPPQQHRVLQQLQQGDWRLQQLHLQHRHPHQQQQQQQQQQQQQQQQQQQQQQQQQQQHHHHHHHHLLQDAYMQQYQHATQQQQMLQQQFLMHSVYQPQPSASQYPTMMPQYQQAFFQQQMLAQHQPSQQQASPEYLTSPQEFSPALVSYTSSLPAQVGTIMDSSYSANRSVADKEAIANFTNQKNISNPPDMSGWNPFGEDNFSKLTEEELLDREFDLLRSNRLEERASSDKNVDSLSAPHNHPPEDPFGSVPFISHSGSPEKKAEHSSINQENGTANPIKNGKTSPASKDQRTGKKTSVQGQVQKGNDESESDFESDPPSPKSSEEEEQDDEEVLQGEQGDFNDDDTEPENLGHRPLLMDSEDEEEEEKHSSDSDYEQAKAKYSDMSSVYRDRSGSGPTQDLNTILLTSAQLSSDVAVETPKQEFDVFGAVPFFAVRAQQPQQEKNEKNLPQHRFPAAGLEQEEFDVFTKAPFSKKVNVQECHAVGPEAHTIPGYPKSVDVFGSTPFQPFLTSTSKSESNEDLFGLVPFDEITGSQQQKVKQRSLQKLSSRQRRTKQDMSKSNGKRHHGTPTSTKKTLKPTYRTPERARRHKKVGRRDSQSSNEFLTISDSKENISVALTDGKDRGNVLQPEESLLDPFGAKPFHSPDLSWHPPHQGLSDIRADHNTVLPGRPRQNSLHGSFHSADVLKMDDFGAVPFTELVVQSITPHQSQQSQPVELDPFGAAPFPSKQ

The target in the experiment is BIKE (Homo sapiens, UniProt Q9NSY1). As to the kind of experiment: biochemical. The class given is binding.

pKd: −log10 of the molar value.

Consider `CCS(=O)(=O)N1CC(CC#N)(n2cc(-c3ncnc4[nH]ccc34)cn2)C1` [Baricitinib], for which the pKd (as a rule, the negative decadic logarithm of the Kd, by convention in mol/L) was 7.70.
